Experimental data published in patent US20140336126A1.

What was measured:
[1] = molecular target: GS-TAP-tagged Optn (human) (UniProt Q96CV9); experiment: TAP of GS-tagged Optn from HEK-293 cells, LC-MSMS
GFP-Rab8 Q67L = GFP-Rab8 Q67L (UniProt P61006); experiment: cell-based or functional assay

ACTIN, ALPHA SKELETAL MUSCLE. (from UniProt P68133 3-377)
sequence coverage [1]: 0.27
unique peptide counts [1]: 10

CALMODULIN. (from UniProt P0DP25 2-149)
sequence coverage [1]: 0.19
unique peptide counts [1]: 3

Optineurin (Optn), wild type (from UniProt Q96CV9 1-577)
colocalization in tight perinuclear spots (immunofluorescence) (GFP-Rab8 Q67L): 70%

Optn S177A (from UniProt Q96CV9 1-577)
colocalization in tight perinuclear spots (immunofluorescence) (GFP-Rab8 Q67L): 70%
